Assay results reported in patent US20210017295A1, “BISPECIFIC BINDING AGENTS AND USES THEREOF” (MEMORIAL SLOAN KETTERING CANCER CENTER, priority 2018, published 2021).

What was measured:
HER2 receptor = target: T1, HER2 receptor (Homo sapiens, UniProt P04626); test: Law of mass action calculation of HER2 receptor saturation and scaling to man; conditions: scaled to man
T1 construct: the law of mass action to the case of HER2 antigen on BT474 xenografts in the laboratory; endogenous in cells; host or cells: BT-474 human breast cancer xenografts in mice; values extrapolated to HER2-expressing tumours in man
Description: From the equilibrium law of mass action, the antibody [L] and tumor receptor [R] concentrations can be thought of as:
Ka=[LR]/[L]*[R];solving for [LR]/[R],which is the proportion of the tumor receptor by antibody; Equation 1:
Ka*[L]=[LR]/[R]. Equation 2:
Since (L) can be measured in the plasma and since Ka for the antibody is known, one can calculate the degree of saturation [LR]/[R].
In order to scale to man, an estimate of the total volume of blood of ˜5000 mLs is used below.
This yields about 625 mg of HER2-C825 injected to achieve a [RL]/R=60 (98.4%.) If 1/2 of this or 312.5 mg where injected [RL]/R=30 (97%); at a dose of 156.5 mg, there [RL]/R=15(94%). Without being bound by any particular theory, all of these doses are close to total binding or available antibody to receptor and so there should be little change in bifunctional antibody uptake at the tumor site. These are doses that are very close to doses usually administered e.g. dose of Herceptin that has been empirically determined as being nearly optimal for therapy. (See Herceptin package insert, e.g. 8 mg/kg IV over 90 minutes as initial infusion, or 560 mg for a 70 kg adult, in gastric Ca, for example.)

[1] = tested on: HER2(+) breast cancer cell line AU565; test: Flow cytometry (FACS) binding to AU565 cells; format: cell-based; conditions: compared with parental trastuzumab
Description: FIG. 1A-FIG. 1C. In vitro characterization of anti-HER2-C825 BsAb. FIG. 1A: Biochemical purity of HER2-C825 by SE-HPLC chromatogram (UV 280 nm). The major peak (15.933 min) is the fully-paired BsAb with an approximate molecular weight of 210 kDa (>96% integrated area under the curve). 25 min is the salt buffer peak. FIG. 1B: Biacore sensorgrams of BsAbs binding to BSA-(Y)-DOTA-Bn. FIG. 1C: FACS histograms of antibodies binding to the HER2(+) breast cancer cell line AU565. Top of the left histogram recorded the concentrations of antibodies (μg/10^6 cells), and Rituxan was used as negative control (MFI set at 5).
The binding affinity to antigen Bovine serum albumin (BSA)-(Y)-DOTA-Bn was measured by Biacore T100. […] The binding to tumor targets was measured by flow cytometry.

[2] = Toxicity assessment: weight monitoring and removal criteria; format: in vivo, mouse; conditions: ~85 d
[3] = Histopathology at necropsy and pathology severity scoring; format: in vivo, mouse
HER2(+) BT-474 tumors [4] = conditions: mouse, in vivo
Description: The tumor uptake was (as mean±SD) 8.87±2.50, 10.16±4.08, 7.96±2.37, and 5.62±1.44 at 4, 12, 24, and 48 hours (h) post-injection (p.i.), respectively. […] The blood activity was (as mean±SD) 11.3±0.79, 6.57±0.44, 3.98±0.25, and 2.26±0.23 at 4, 12, 24, and 48 h p.i., respectively.
At a certain time (T), the system comes into equilibrium and the tumor and the plasma decline in parallel, and at this point after injection the concentration in the plasma was 5% of the injected dose/mL, which converts to 0.060 nM/mL or 60 nM/L.

HER2(+) BT-474 tumors [5] = test: Biodistribution with modified BsAb / clearing agent time intervals (same-day PRIT); conditions: mouse, in vivo
Description: Two separate in vivo anti-HER2-DOTA-PRIT experiments were performed to study the impact of BsAb time interval on ^177Lu-DOTA-Bn uptake (24 h p.i.) in tissue (as mean±SD).
During a second set of experiments (Table 31), the BsAb timing interval was varied, as well as the timing interval between the clearing agent and ^177Lu-DOTA-Bn.
In FIG. 2, the time course of bifunctional HER2-C825 antibody uptake onto BT474 tumor is shown. […] Without being bound by any particular theory, this timing may be optimal for clinical application because all of the regents could be easily administered in one day, and the TI's for tumor:blood and tumor:liver, as well as the absolute uptake in tumor will be maintained at levels within 80% of maximum, which is observed at 10 hours in this experiment (see Table 32). At this uptake level, cures in mice have been seen, and the TI's are protective of the blood and kidney, the 2 critical organs. In this case the internalization of antibody-antigen is likely to be helpful because the ^177Lu radiometal captured by bispecific binding agent that is bound to membrane HER2, will be taken up and the radiometal will be trapped in the tumor tissue.
It should also be noted that the clearing agent is essential to achieve high TIs.

HER2(+) BT-474 cells = test: Internalization and cellular processing of ^131I-anti-HER2-C825 in BT-474 cells; format: cell-based, human
Description: Trastuzumab is known to internalize upon binding to surface HER2 antigen. […] In brief, cells were plated at a density of 5.0×10^5 cells/mL in 12-well plates and allowed to adhere overnight. Cells were pre-incubated on ice with ^131I-anti-HER2-C825 (prepared using the IODOGEN method to a specific activity of 132 MBq/mg and purified using SEC to radiochemical purity>98%; diluted into complete media; 160 ng/mL; 0.8 nM) for 1 h. Next, the cells were extensively washed with complete media chilled on ice and the plates were transferred to the 37° C. incubator. At various time-points up to 24 h, the radioactive distribution in the outside media, cell-surface, as well as the fraction of activity internalized by the cells was determined (n=3-6 per time-point) by quantification in the gamma counter. An acid-wash protocol was used to strip cell-surface antibody, consisting of treating the cells on ice three times for 5 minutes (min) with 2 M urea, 50 mM glycine, 150 mM NaCl, pH 2.4, and pooling the supernatants. […] Controls consisted either of incubation at 4° C. or wells consisting of the ^131I-anti-HER2-C825 diluted into media only. These control wells were also subjected to TCA precipitation in order to inhibit internalization and determine the basal catabolism (via degradation) rate of the tracer, respectively. For kinetic analysis, data was curve fitted using a nonlinear model, with one-phase association using Prism software package, Graphpad Software Inc., San Diego, Calif.

BSA-(Y)-DOTA-Bn = test: Surface plasmon resonance (Biacore T100) binding to BSA-(Y)-DOTA-Bn; conditions: bivalent analyte model, read-out: overall KD
Description: Biacore T100 Biosensor, CMS sensor chip, and related reagents were purchased from GE Healthcare. A BSA-(Y)-DOTA-Bn conjugate was prepared as previously described. The antigen was immobilized using the Amine Coupling Kit (GE Healthcare). Purified BsAbs were analyzed, and data were fit to a bivalent analyte model using the Biacore T100 evaluation software as previously described.

[6] = medium tumors, fractionated study
[7] = small tumors, single-cycle study, 55.5 MBq

Q: What does the source list for “anti-HER2-C825: IgG-scFv bispecific antibody from trastuzumab and murine C825; heavy chain SEQ ID No. 15, light chain fusion polypeptide SEQ ID NO: 7”?
A: receptor saturation (HER2 receptor; 312.5 mg injected): 97%; receptor saturation (HER2 receptor; about 625 mg injected): 98.4%; receptor saturation (HER2 receptor; dose of 156.5 mg): 94%; binding to HER2(+) AU565 cells by flow cytometry [1]: equally efficient as parental trastuzumab; animals removed: Discovered deceased [2, 6]: 1/5; animals removed: Tumor burden [2, 6]: 0/5; animals removed: Weight loss [2, 6]: 1/5; animals removed: Discovered deceased [2, 7]: 2/5; animals removed: Tumor burden [2, 7]: 0/5; animals removed: Weight loss [2, 7]: 0/5; Histopathologic findings, Bone marrow ([3]; mouse, in vivo): N; Histopathologic findings, Bones ([3]; mouse, in vivo): N; Score: Bone Marrow, Diffuse myelofibrosis ([3]; mouse, in vivo): 0; Score: Bone Marrow, Erythroid compartment is depleted of both mature and immature forms ([3]; mouse, in vivo): 0; Score: Bone Marrow, Focal myelofibrosis ([3]; mouse, in vivo): 1; Score: Bone Marrow, Multifocal myelofibrosis ([3]; mouse, in vivo): 0; Score: Spleen, EMH is: 2 ([3]; mouse, in vivo): 2; Score: Spleen, EMH is: 2-3 ([3]; mouse, in vivo): 0; Score: Spleen, EMH is: 3 ([3]; mouse, in vivo): 0; Score: Spleen, EMH is: 3-4 ([3]; mouse, in vivo): 0; Total organ severity score: Bone Marrow ([3]; mouse, in vivo): 1; Total organ severity score: Kidney ([3]; mouse, in vivo): 3; Total organ severity score: Spleen ([3]; mouse, in vivo): 2; Histopathologic findings, Tumor ([3]; small tumors, single-cycle study, ~85 d, individual animals, listed as BsAb): No tumor; approximation of tumor half-life (HER2(+) BT-474 tumors [4]): ~36 h; blood half-life (HER2(+) BT-474 tumors [4]): 8.1 h; time at which maximum tumor uptake is observed (HER2(+) BT-474 tumors [5]): 10 h; K of rate of increase in catabolized radioactivity in extracellular media (HER2(+) BT-474 cells; 37° C., R^2=0.995): 0.054; half-time of increase in catabolized radioactivity in extracellular media (HER2(+) BT-474 cells; 37° C., R^2=0.995): 12.82 h; half-life of remaining surface-bound activity (HER2(+) BT-474 cells; 37° C., after first 2 h, R^2=0.992): 8.5 h; initially bound remaining on the cell surface (HER2(+) BT-474 cells; BT-474, 37° C., 24 h): 11.1±0.48%; internalized radioactivity (HER2(+) BT-474 cells; BT-474, 37° C., 24 h): 5.6±0.21%; initially bound remaining on the cell surface (HER2(+) BT-474 cells; BT-474, 37° C., 24 h, listed as BsAb): 11%; surface-bound activity lost (HER2(+) BT-474 cells; first 2 h of incubation at 37° C.): ~50%; Kd (BSA-(Y)-DOTA-Bn): 6 nM; tumor volume, % of pre-treatment volume (s.c. BT-474 xenografts; medium BT-474 tumors, fractionated study, 85 d): 396±252%; complete responses (CR), animals (s.c. BT-474 xenografts; small BT-474 tumors (palpable-30 mm^3), single-cycle study, 55.5 MBq, 85 d, listed as BsAb): 1/5; complete responses (CR) (s.c. BT-474 xenografts; small BT-474 tumors, single-cycle study, 55.5 MBq, 85 d): 20%; cures (s.c. BT-474 xenografts; small BT-474 tumors, single-cycle study, 55.5 MBq, necropsy ~85 d): 33.3%; cures, animals (s.c. BT-474 xenografts; small BT-474 tumors, single-cycle study, 55.5 MBq, necropsy ~85 d, listed as BsAb): 1/3
